These results are taken from article PMC11206519, “Multi-Endpoint Toxicological Assessment of Chrysin Loaded Oil-in-Water Emulsion System in Different Biological Models” (Nanomaterials, 2024).

One data set deals with S. typhimurium TA100. Briefly: Ames test, anti-mutagenicity. The note with it: standard mutagen alone, 0.1 µg/plate, −S9.
The test system of another data set is S. typhimurium TA 98. As to the kind of experiment: Ames test, mutagenicity. In kind it is cell-based, Salmonella Typhimurium. The note with it: −S9; 0.1 µg/plate, positive control. (In general: The Ames test detects mutagens through reverse mutation in bacteria.)
In a further data set the test system is S. typhimurium TA98. Briefly: Ames test, anti-mutagenicity. The note with it: standard mutagen alone, 0.1 µg/plate, −S9.

For the molecule `NC(=O)C(=Cc1ccc([N+](=O)[O-])o1)c1ccco1` [AF-2, 2-(2-Furyl)-3-(5-nitro-2-furyl) acrylamide, reference compound], the “Number of Revertant Colonies” value in the data set with S. typhimurium TA100 was 396 ± 11; in the data set with S. typhimurium TA 98, 379 ± 30; in the data set with S. typhimurium TA98, 252 ± 12.
